Test results published in article PMC10528180, “Inhibitory Mechanism of Quercimeritrin as a Novel α-Glucosidase Selective Inhibitor” (Foods, 2023).

Sequences of proteins named here, by UniProt entry; tags and fusion partners are left off. A change or cut given only in a name is not applied to a line headed by its entry.
UniProt P53341: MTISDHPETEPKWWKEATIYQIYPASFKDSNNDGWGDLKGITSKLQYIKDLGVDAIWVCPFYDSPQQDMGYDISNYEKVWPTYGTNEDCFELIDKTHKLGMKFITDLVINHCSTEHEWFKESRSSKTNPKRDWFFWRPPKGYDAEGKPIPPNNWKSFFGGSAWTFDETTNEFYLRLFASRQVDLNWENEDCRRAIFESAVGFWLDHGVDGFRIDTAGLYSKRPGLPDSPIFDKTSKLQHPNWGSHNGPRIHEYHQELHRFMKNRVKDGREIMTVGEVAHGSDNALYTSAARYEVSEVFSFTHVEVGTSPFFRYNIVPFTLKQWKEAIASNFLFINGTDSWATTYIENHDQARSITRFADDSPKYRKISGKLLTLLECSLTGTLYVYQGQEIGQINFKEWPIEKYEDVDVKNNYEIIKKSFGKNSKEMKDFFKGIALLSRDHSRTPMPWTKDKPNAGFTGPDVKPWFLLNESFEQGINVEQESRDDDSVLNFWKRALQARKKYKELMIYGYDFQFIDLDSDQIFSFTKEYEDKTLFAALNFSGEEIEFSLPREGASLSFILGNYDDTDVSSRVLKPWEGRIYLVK

Biological target: T1, α-glucosidase (Saccharomyces cerevisiae, UniProt P53341)
T1 construct: purchased Sigma-Aldrich Co
Format: biochemical
Details: inhibition at 500 µM of both enzymes compared
Protocol: The other reagents used in this experiment are analytically pure reagents purchased from Sigma-Aldrich Co. (St. Louis, MI, USA) unless specified otherwise.
The in vitro α-glucosidase activity assay was determined using spectrophotometry, as previously reported, with only minor modifications. In phosphate buffer with a pH of 6.8, 0.5 U/mL of α-glucosidase and the appropriate quantity of p-nitrophenyl-D-glucopyranoside (pNGP) were produced. […] Gradient dilution with a phosphate-buffered solution was used to create sample solutions of various concentrations. First, different concentrations of compound (10 μL), an enzyme solution (40 μL), and potassium phosphate buffer (100 μL) were pre-incubated in 96-well plates at 37 °C for 10 min.
The enzymatic inhibitory activity of the tested compounds was calculated using the following formula: Inhibition %=[(Abs control−Abs sample)/Abs control]×100
The IC50 values of the tested compounds were calculated using nonlinear fitting (logit method).

O=c1c(O)c(-c2ccc(O)c(O)c2)oc2cc(O[C@@H]3O[C@H](CO)[C@@H](O)[C@H](O)[C@H]3O)cc(O)c12 [Quercimeritrin]
selectivity for glucosidase over α-amylase among the 12 compounds: selective inhibition of glucosidase
